{"sequences": {"note": "Sequences of proteins named here, by UniProt entry; tags and fusion partners are left off.", "UniProt Q8N6T7, whole entry": "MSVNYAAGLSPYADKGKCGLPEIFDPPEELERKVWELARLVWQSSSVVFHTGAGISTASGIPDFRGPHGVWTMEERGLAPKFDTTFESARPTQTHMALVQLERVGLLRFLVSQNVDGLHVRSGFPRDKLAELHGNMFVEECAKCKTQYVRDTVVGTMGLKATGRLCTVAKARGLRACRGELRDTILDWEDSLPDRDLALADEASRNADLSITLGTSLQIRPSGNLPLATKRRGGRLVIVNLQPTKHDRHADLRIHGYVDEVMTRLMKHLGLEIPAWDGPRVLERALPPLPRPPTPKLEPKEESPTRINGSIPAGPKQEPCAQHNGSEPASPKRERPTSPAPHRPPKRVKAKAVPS"}, "source": "ChEMBL document CHEMBL5360531", "about": "“Pyrazolone derivatives as potent and selective small-molecule SIRT5 inhibitors” (Eur J Med Chem, 2023)", "key": {"[1]": {"molecular_target": "NAD-dependent protein deacylase sirtuin-6 (Homo sapiens) (UniProt Q8N6T7)", "experiment": "Inhibition of human SIRT6 at 800 uM by fluorescence based analysis"}, "[2]": {"molecular_target": "T1, NAD-dependent protein deacetylase sirtuin-2 (Homo sapiens) (UniProt Q8IXJ6)", "T1 sequence (whole entry)": "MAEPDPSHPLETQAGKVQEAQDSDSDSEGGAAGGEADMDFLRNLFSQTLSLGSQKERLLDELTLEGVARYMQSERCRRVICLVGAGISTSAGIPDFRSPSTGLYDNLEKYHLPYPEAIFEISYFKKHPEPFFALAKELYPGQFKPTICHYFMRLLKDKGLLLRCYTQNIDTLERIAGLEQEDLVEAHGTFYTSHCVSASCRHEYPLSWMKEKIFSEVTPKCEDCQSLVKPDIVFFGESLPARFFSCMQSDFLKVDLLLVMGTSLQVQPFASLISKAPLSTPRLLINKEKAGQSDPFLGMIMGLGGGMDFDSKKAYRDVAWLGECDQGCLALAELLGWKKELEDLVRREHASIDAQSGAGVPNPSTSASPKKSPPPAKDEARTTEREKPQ", "experiment": "Inhibition of human SIRT2 at 800 uM by fluorescence based analysis"}}, "note": "Activity calls are given as the source filed them. The calls are words filed in the database; no cut-off is given here."}
{"compound": "CC1=NN(c2nc(-c3ccc(Cl)cc3)cs2)C(=O)/C1=C/c1ccc(C(=O)O)cc1", "values": [{"measurement": "inhibition", "setting": "[1]", "value": "inactive"}, {"measurement": "inhibition", "setting": "[2]", "value": "inactive"}]}
